The record followed here is publication PMC3725995 (Bioorganic & medicinal chemistry letters, 2010).

By UniProt entry, the sequences of proteins in these tests, tags left out. Where a name states a change or a piece, a line headed by the entry shows the natural chain unless it says otherwise.
UniProt Q63016: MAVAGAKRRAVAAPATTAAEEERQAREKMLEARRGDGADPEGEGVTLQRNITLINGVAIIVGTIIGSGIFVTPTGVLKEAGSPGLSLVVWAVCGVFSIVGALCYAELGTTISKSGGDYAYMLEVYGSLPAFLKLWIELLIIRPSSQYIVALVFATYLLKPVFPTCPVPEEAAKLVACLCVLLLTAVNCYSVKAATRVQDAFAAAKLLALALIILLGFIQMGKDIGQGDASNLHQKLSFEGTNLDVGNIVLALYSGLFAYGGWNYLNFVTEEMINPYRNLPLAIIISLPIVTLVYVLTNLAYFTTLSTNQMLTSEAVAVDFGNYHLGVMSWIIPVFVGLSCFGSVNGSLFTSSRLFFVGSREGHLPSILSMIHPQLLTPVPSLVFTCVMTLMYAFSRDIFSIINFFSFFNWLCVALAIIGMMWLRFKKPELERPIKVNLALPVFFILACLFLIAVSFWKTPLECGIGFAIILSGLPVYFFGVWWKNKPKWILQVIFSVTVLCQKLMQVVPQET

Structures can show the parent of a compound that is named as a salt.

The term Ki denotes a measure of affinity in units of concentration, obtained from inhibition or displacement.

The target of this test is system LAT1 transporter of the blood–brain barrier (Rattus norvegicus, UniProt Q63016). Kind of test: in situ rat brain perfusion: inhibition of L-[14C]-leucine uptake into rat brain. Particulars: read-out: Ki for inhibition of the uptake of L-[14C]-leucine into rat brain via the blood–brain barrier, in vivo.
For `NC1(C(=O)O)CCc2cccc(N(CCCl)CCCl)c2C1` (racemic) [5d, (±)-2-amino-(bis-2-chloroethyl)-8-amino-1,2,3,4-tetrahydro-2-naphthoic acid dihydrochloride salt], the Ki was found to be 252 ± 44 µM.

On to `NC1(C(=O)O)CC2CC1c1ccccc12` (racemic) [(±)-2-Aminobenzo-bicyclo-[2.2.1]heptane-2′-exo-carboxylic acid], for which the Ki is 26 ± 1 µM.

As to `NC1(C(=O)O)Cc2ccccc2C1` [(±)-2-Aminoindane-2 carboxylic acid], the Ki is 12.5 ± 1.1 µM.

Regarding `N[C@@H](Cc1ccc(N(CCCl)CCCl)cc1)C(=O)O` [compound 2, Melphalan, reference compound], the Ki was found to be 55 ± 4 µM.
